# Assay: Phase I metabolic stability in rat liver microsomes
# Type: in vitro ADME
smiles,measurement,value
"O=C(c1ccc(F)cc1F)N1CCC(NCCSC(c2ccc(F)cc2)c2ccc(F)cc2)CC1 [Compound 33, (4-((2-((Bis(4-fluorophenyl)methyl)thio)ethyl)amino)piperidin-1-yl)(2,4-difluorophenyl)methanone]",metabolic stability / susceptibility to phase I metabolism (in words),relatively metabolically stable
